Results: patent US20200010482A1, “INHIBITORS OF BETA SECRETASE” (Janssen Pharmaceutica NV, priority 2017, published 2020)

Tests used:
[1] = system: Abeta 1-42 produced and secreted by SKNBE2 cells expressing hAPP695; experiment: Cellular αLisa assay in SKNBE2 cells, Abeta 1-42; conditions: SKNBE2 cells expressing hAPP695, 18 hours incubation
Method: (§1) In two αLisa assays the levels of Abeta total and Abeta 1-42 produced and secreted into the medium of human neuroblastoma SKNBE2 cells are quantified. The assay is based on the human neuroblastoma SKNBE2 expressing the wild type Amyloid Precursor Protein (hAPP695). The compounds are diluted and added to these cells, incubated for 18 hours and then measurements of Abeta 1-42 and Abeta total are taken. Abeta total and Abeta 1-42 are measured by sandwich αLisa. αLisa is a sandwich assay using biotinylated antibody AbN/25 attached to streptavidin coated beads and antibody Ab4G8 or cAb42/26 conjugated acceptor beads for the detection of Abeta total and Abeta 1-42 respectively. In the presence of Abeta total or Abeta 1-42, the beads come into close proximity. The excitation of the donor beads provokes the release of singlet oxygen molecules that trigger a cascade of energy transfer in the acceptor beads, resulting in light emission. Light emission is measured after 1 hour incubation (excitation at […] and emission at 615 nm).
(§2) A best-fit curve is fitted by a minimum sum of squares method to the plot of % Controlmin versus compound concentration. From this an IC50 value (inhibitory concentration causing 50% inhibition of activity) can be obtained. • LC=Median of the low control values=Low control: cells preincubated without compound, without biotinylated Ab in the αLisa • HC=Median of the High control values=High Control: cells preincubated without compound
(§3) % Effect=100−[(sample−LC)/(HC−LC)*100]
(§4) % Control=(sample/HC)*100
(§5) % Controlmin=(sample−LC)/(HC−LC)*100

[2] = system: Abeta total produced and secreted by SKNBE2 cells expressing hAPP695; experiment: Cellular αLisa assay in SKNBE2 cells, Abeta total; conditions: SKNBE2 cells expressing hAPP695, 18 hours incubation
Method: as §1, §2, §3, §4, §5

COc1ncc(-c2c(C)noc2C)c2c1C[C@]1(c3ccc(F)cc3F)N=C(N)SC[C@@H]1C2
CELLULAR αLISA ASSAY IN SKNBE2 CELLS ABETA 42 PIC50 [1]: 7.78

COc1ccccc1-c1cnc(OC)c2c1C[C@H]1CSC(N)=N[C@@]1(c1ccc(F)cc1F)C2
CELLULAR αLISA ASSAY IN SKNBE2 CELLS ABETA 42 PIC50 [1]: 7.22

COc1ncc(-c2ccc(F)cc2C)c2c1C[C@]1(c3cc(OCC4CCOCC4)ccc3F)N=C(N)SC[C@@H]1C2
CELLULAR αLISA ASSAY IN SKNBE2 CELLS ABETA 42 PIC50 ([1]; tested form: formate): 6.89

COc1ncc(-c2cc(C)nc3c2CCCC3)c2c1C[C@]1(c3ccc(F)cc3F)N=C(N)SC[C@@H]1C2
CELLULAR αLISA ASSAY IN SKNBE2 CELLS ABETA 42 PIC50 [1]: 7.44 | CELLULAR αLISA ASSAY IN SKNBE2 CELLS ABETA TOTAL pIC50 [2]: 7.37

COc1ncc(-c2c(C)noc2C)c2c1C[C@]1(c3cc(OCC4CC4)ccc3F)N=C(N)SC[C@@H]1C2
CELLULAR αLISA ASSAY IN SKNBE2 CELLS ABETA 42 PIC50 ([1]; tested form: formate): 5.57

COc1ccc(F)c(-c2cnc(OC)c3c2C[C@H]2CSC(N)=N[C@@]2(c2ccc(F)cc2F)C3)c1
CELLULAR αLISA ASSAY IN SKNBE2 CELLS ABETA 42 PIC50 ([1]; tested form: free base): 7.64

COc1ncc(-c2c(C)noc2C)c2c1C[C@]1(c3cc(OCc4ncccn4)ccc3F)N=C(N)SC[C@@H]1C2
CELLULAR αLISA ASSAY IN SKNBE2 CELLS ABETA 42 PIC50 ([1]; tested form: formate): 7.1

COc1ncc(-c2c(C)noc2C)c2c1C[C@]1(c3cc(OCC4CCOCC4)ccc3F)N=C(N)SC[C@@H]1C2
CELLULAR αLISA ASSAY IN SKNBE2 CELLS ABETA 42 PIC50 ([1]; tested form: formate): 6.81
